# PubChem BioAssay AID651702 (NMMLSC, 2012)
# The entries are a selection whose mix differs from that of the whole data set. The source made the active and inactive calls.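 Rule for the calls: active = inhibition above about 55% (limit read from the data); inconclusive = no clear call, values can overlap the other calls; inactive = the rest.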
# Assay: LAMP-1 surface exposure blockers, TALL-104 cells – cell-based, flow cytometry, MLPCN library, primary screen (AID 651702)
# Conditions: TALL-104 LAMP-1 surface exposure, at 10 µM, stronger effect = higher value, cells stimulated with thapsigargin and PMA
row,Compound,inhibition
1,CCC(=O)N(c1ccccc1)C1(COC)CCN(CCc2cccs2)CC1,inactive: 1.5%
2,CCC(=O)N(c1ccccc1)C1(COC)CCN(CCn2nnn(CC)c2=O)CC1,inactive: -2.5%
